Measured values from US20110118298A1, “COMPOSITIONS, KITS, AND METHODS FOR IDENTIFICATION, ASSESSMENT, PREVENTION, AND THERAPY OF CANCER” (INFINITY PHARMACEUTICALS, INC., priority 2009, published 2011).

System: EGFR mutant tumors with T790M resistant clones
Assay: In vivo model of emerging EGFR TKI resistance (T790M)
Conditions: day 45

## COc1cc2ncnc(Nc3ccc(F)c(Cl)c3)c2cc1OCCCN1CCOCC1 [gefitinib, reference compound]
  animals still on study: had been removed due to tumor progression
